Tested on: WT-1-specific T cells
Assay: Specific cell staining / titration on WT-1-specific T cells
Type: cell-based
Details: 30× or 100× excess of peptide
Excerpt: A Y84A variant of the A*02:01 tetramer (shown schematically in FIG. 9A) was produced, digested and subjected to WT-1 peptide exchange as shown in Examples 4 and 5. The amino acid sequence of the Y84A HLA alpha chain is shown in SEQ ID NO: 321. This mutation is known in the art to stabilize binding of the tethered peptide by reducing steric conflict with the peptide linker.

Question: For “WT1 peptide: A*02:01 tetramers digested and exchanged with WT-1 peptide RMFPNAPYL (SEQ ID NO: 9)”, which “binding to WT-1-specific T cells” value is on record?
Answer: strong and specific binding

From patent US20230265157A1, “MHC MULTIMER EXPRESSION CONSTRUCTS AND USES THEREOF” (priority 2020, published 2023)
